Usually Kd stands for the constant that tells how readily two partners part at equilibrium. Read a high Kd as lower affinity.

The chains behind the UniProt entries cited, without tags or fusion partners.
UniProt P58154, whole entry: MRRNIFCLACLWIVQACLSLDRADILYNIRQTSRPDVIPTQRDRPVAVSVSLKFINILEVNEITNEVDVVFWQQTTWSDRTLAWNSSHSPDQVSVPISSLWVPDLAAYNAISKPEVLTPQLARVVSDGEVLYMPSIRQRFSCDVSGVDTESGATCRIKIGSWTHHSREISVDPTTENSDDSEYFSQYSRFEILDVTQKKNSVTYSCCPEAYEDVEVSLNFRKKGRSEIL

The record followed here is BindingDB's records for doi:10.1021/bi1006354 (Beactica, 2010).

The assay deals with Acetylcholine-binding protein (Lymnaea stagnalis, UniProt P58154). The assay can be described thus: Interaction Assay. Conditions: pH 7.4; 25 °C.

“And” between values parts separate entries of the source, which are not always exact repeats. Equal entries are not always repeated.

Turning to `CN1CCC[C@H]1c1cccnc1` [CAS_29790-52-1], the Kd is 40.7 nM and 310 nM.
